Read-outs that look alike come from different tables or passages of the source. Marks after values point to notes of the source that are not given here.
Key:
DRB1*0401 [1] = molecular target: T1, DRB1*0401 (Homo sapiens, UniProt P01903+P01911, A100K/A169T/F76Y/I96L/K127E/L162R/M171V/N62H/P40V/Q125Y/R42H/S133A/S149N/S66Y/V115G/V209L/W38E); assay: biochemical
DRB1*0701 [2] = molecular target: T2, DRB1*0701 (Homo sapiens, UniProt P01903+P01911, A100R/A102G/A103Q/D57E/D86V/E43K/F76Y/K127E/L162R/M171V/P40G/Q125H/Q99D/R33Q/R42Y/R54Q/S133A/S66F/T210M/V115G/Y107V/Y59L/Y89S); conditions: read-out: DRB1*0701 IC50; competition with biotin-Flu-HA 306–318 at 1 μM, 24 h, 37°C; NB = non-binder
DRB1*1501 = molecular target: T3, DRB1*1501 (Homo sapiens, UniProt P01903+P01911); assay: competition-based HLA binding assay; conditions: competition with biotin-MBP 84–102 at 0.5 μM, 24 h, 37°C; NB = non-binder
T3 construct: gift: William Kwok, Benaroya Institute, Seattle

DRB1*0101 = DRB1*0101 (Homo sapiens, UniProt P01903+P01911, A100R/D57E/F55L/F60I/F76Y/I96L/L162R/M171V/P40L/Q125E/R42F/V115G/Y59C); assay: biochemical
PBMC = assay: two-step IFNγ ELISpot assay with human PBMC; format: cell-based; conditions: 7 d pre-culture with GAD65 peptide pool, 48 h restimulation, triplicate;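 also: background is unstimulated wells, counts given per 1 million cells, 200,000–250,000 cells per well, restimulated at 37°C, read by Zeiss plate reader, IL-2 and IL-7 fed during pre-culture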
DRB1*0701 [3] = molecular target: T2, DRB1*0701; assay: biochemical
DRB1*0401 [4] = molecular target: T1, DRB1*0401; conditions: read-out: DRB1*0401 IC50
[5] = Negative Control 668 PBMC, Tregitope + (5 μg/mL each human Tregitopes 167 and 289)
[6] = Negative Control 668 PBMC, Tregitope −
[7] = Negative Control 669 PBMC, Tregitope + (5 μg/mL each human Tregitopes 167 and 289)
[8] = Negative Control 669 PBMC, Tregitope −
[9] = Negative Control 670 PBMC, Tregitope + (5 μg/mL each human Tregitopes 167 and 289)
[10] = Negative Control 670 PBMC, Tregitope −
[11] = Negative Control 672 PBMC, Tregitope + (5 μg/mL each human Tregitopes 167 and 289)
[12] = Negative Control 672 PBMC, Tregitope −
[13] = Negative Control 674 PBMC, Tregitope + (5 μg/mL each human Tregitopes 167 and 289)
[14] = Negative Control 674 PBMC, Tregitope −
[15] = Subject D1101H (T1D) PBMC, Tregitope + (5 μg/mL each human Tregitopes 167 and 289)
[16] = Subject D1101H (T1D) PBMC, Tregitope −
[17] = Subject D1104H (T1D) PBMC, Tregitope + (5 μg/mL each human Tregitopes 167 and 289)
[18] = Subject D1104H (T1D) PBMC, Tregitope −
[19] = Subject D1106H (T1D) PBMC, Tregitope + (5 μg/mL each human Tregitopes 167 and 289)
[20] = Subject D1106H (T1D) PBMC, Tregitope −

Q: What does the source list for CC[C@H](C)[C@H](NC(=O)[C@H](CC(N)=O)NC(=O)[C@H](Cc1ccc(O)cc1)NC(=O)[C@H](CC(C)C)NC(=O)[C@@H](N)Cc1ccc(O)cc1)C(=O)N[C@H](C(=O)N[C@@H](CCCCN)C(=O)N[C@@H](CC(N)=O)C(=O)N[C@@H](CCCNC(=N)N)C(=O)N[C@@H](CCC(=O)O)C(=O)NCC(=O)N[C@@H](Cc1ccc(O)cc1)C(=O)N[C@@H](CCC(=O)O)C(=O)N[C@@H](CCSC)C(=O)N[C@H](C(=O)N[C@@H](Cc1ccccc1)C(=O)N[C@@H](CC(=O)O)C(=O)O)C(C)C)[C@@H](C)CC [GAD65_480–496]?
A: IC50 (DRB1*0401 [1]): 5.7 µM; IC50 (DRB1*0701 [2]): > 50 µM; IC50 (DRB1*1501): < 5 µM; IC50 (DRB1*0101): < 5 µM

Q: Which IC50 (DRB1*0401 [1]) does the source give for CSCC[C@H](NC(=O)[C@H](CC(C)C)NC(=O)CNC(=O)[C@H](CCC(=O)O)NC(=O)[C@H](CCC(=O)O)NC(=O)[C@H](CCCNC(=N)N)NC(=O)[C@@H](NC(=O)[C@H](CC(C)C)NC(=O)[C@H](CC(C)C)NC(=O)[C@H](C)NC(=O)[C@@H](N)CO)C(C)C)C(=O)N[C@@H](CCC(N)=O)C(=O)N[C@@H](CC(N)=O)C(=O)N[C@@H](CS)C(=O)N[C@@H](CC(N)=O)C(=O)N[C@@H](CCC(N)=O)C(=O)N[C@@H](CCSC)C(=O)N[C@@H](Cc1c[nH]cn1)C(=O)N[C@@H](C)C(=O)N[C@@H](CO)C(=O)O [GAD65_405–424] here?
A: > 50 µM

Q: What about the “IFNγ ELISpot SFC over background” value (PBMC; [5]) of the same molecule?
A: −8 ** SFC over BG/10^6

Q: And the “IFNγ ELISpot SFC over background” value (PBMC; [6])?
A: 178 SFC over BG/10^6

Q: What about the “IFNγ ELISpot SFC over background” value (PBMC; [7]) of the same molecule?
A: 13** SFC over BG/10^6

Q: And the “IFNγ ELISpot SFC over background” value (PBMC; [8])?
A: 78 SFC over BG/10^6

Q: What about the “IFNγ ELISpot SFC over background” value (PBMC; [9]) of the same molecule?
A: −14 SFC over BG/10^6

Q: And the “IFNγ ELISpot SFC over background” value (PBMC; [10])?
A: 49 SFC over BG/10^6

Q: What about the “IFNγ ELISpot SFC over background” value (PBMC; [11]) of the same molecule?
A: 11 SFC over BG/10^6

Q: And the “IFNγ ELISpot SFC over background” value (PBMC; [12])?
A: −10 SFC over BG/10^6

Q: And the “IFNγ ELISpot SFC over background” value (PBMC; [13])?
A: 26 SFC over BG/10^6

Q: What about the “IFNγ ELISpot SFC over background” value (PBMC; [14]) of the same molecule?
A: 16 SFC over BG/10^6

Q: What about the “IFNγ ELISpot SFC over background” value (PBMC; [15]) of the same molecule?
A: 56 SFC over BG/10^6

Q: And the “IFNγ ELISpot SFC over background” value (PBMC; [16])?
A: 71 SFC over BG/10^6

Q: And the “IFNγ ELISpot SFC over background” value (PBMC; [17])?
A: 64 SFC over BG/10^6

Q: What about the “IFNγ ELISpot SFC over background” value (PBMC; [18]) of the same molecule?
A: 126 SFC over BG/10^6

Q: What about the “IFNγ ELISpot SFC over background” value (PBMC; [19]) of the same molecule?
A: 365 SFC over BG/10^6

Q: What about the “IFNγ ELISpot SFC over background” value (PBMC; [20]) of the same molecule?
A: 324 SFC over BG/10^6

Q: And the IC50 (DRB1*1501)?
A: > 50 µM

Q: CSCC[C@H](NC(=O)[C@H](CC(C)C)NC(=O)[C@H](CC(C)C)NC(=O)CNC(=O)CN)C(=O)N[C@@H](CO)C(=O)N[C@@H](CCCNC(=N)N)C(=O)N[C@@H](CCCCN)C(=O)N[C@@H](Cc1c[nH]cn1)C(=O)N[C@@H](CCCCN)C(=O)N[C@@H](Cc1c[nH]c2ccccc12)C(=O)N[C@@H](CCCCN)C(=O)N[C@@H](CC(C)C)C(=O)N[C@@H](CO)C(=O)NCC(=O)N[C@H](C(=O)N[C@@H](CCC(=O)O)C(=O)N[C@@H](CCCNC(=N)N)C(=O)N[C@@H](C)C(=O)N[C@@H](CC(N)=O)C(=O)N[C@@H](CO)C(=O)N[C@H](C(=O)N[C@H](C(=O)N[C@@H](Cc1c[nH]c2ccccc12)C(=O)O)[C@@H](C)O)C(C)C)C(C)C [GAD65_369–392] was tested. Which IC50 (DRB1*0401 [1]) did it give?
A: < 5 µM

Q: What about the IC50 (DRB1*0701 [3]) of the same molecule?
A: < 5 µM

Q: And the IC50 (DRB1*1501)?
A: > 50 µM

Q: And the IC50 (DRB1*0101)?
A: 16.3 µM

Q: For CSCC[C@H](NC(=O)[C@H](CC(=O)O)NC(=O)[C@H](CC(C)C)NC(=O)CNC(=O)[C@@H](NC(=O)[C@H](CO)NC(=O)[C@H](CC(C)C)NC(=O)[C@H](CCC(N)=O)NC(=O)[C@H](CC(N)=O)NC(=O)[C@H](Cc1ccccc1)NC(=O)[C@H](Cc1ccc(O)cc1)NC(=O)[C@H](CCCNC(=N)N)NC(=O)[C@@H]1CCCN1C(=O)[C@@H](N)Cc1c[nH]cn1)[C@@H](C)O)C(=O)N[C@H](C(=O)NCC(=O)O)C(C)C [GAD65_175–190], which IC50 (DRB1*0401 [1]) is on record?
A: > 50 µM

Q: What about the IC50 (DRB1*0701 [3]) of the same molecule?
A: 13.9 µM

Q: And the IC50 (DRB1*1501)?
A: > 50 µM

Q: What about the IC50 (DRB1*0101) of the same molecule?
A: 10.7 µM

Q: What does the source list for CSCC[C@H](NC(=O)[C@H](CCCNC(=N)N)NC(=O)[C@H](CCC(=O)O)NC(=O)[C@H](CCC(=O)O)NC(=O)[C@H](CC(N)=O)NC(=O)[C@H](CC(=O)O)NC(=O)[C@H](CCC(=O)O)NC(=O)[C@H](CC(C)C)NC(=O)[C@@H](NC(=O)[C@H](CCCNC(=N)N)NC(=O)[C@H](CC(C)C)NC(=O)[C@H](CO)NC(=O)[C@@H]1CCCN1)[C@@H](C)O)C(=O)N[C@@H](CO)C(=O)N[C@@H](CCCNC(=N)N)C(=O)O [GAD65_511–525]?
A: IFNγ ELISpot SFC over background (PBMC; [5]): 103 SFC over BG/10^6; IFNγ ELISpot SFC over background (PBMC; [6]): 138 SFC over BG/10^6; IFNγ ELISpot SFC over background (PBMC; [7]): −17 * SFC over BG/10^6; IFNγ ELISpot SFC over background (PBMC; [8]): 13 SFC over BG/10^6; IFNγ ELISpot SFC over background (PBMC; [9]): −79 SFC over BG/10^6; IFNγ ELISpot SFC over background (PBMC; [10]): 36 SFC over BG/10^6; IFNγ ELISpot SFC over background (PBMC; [11]): 113 SFC over BG/10^6; IFNγ ELISpot SFC over background (PBMC; [12]): 52 SFC over BG/10^6; IFNγ ELISpot SFC over background (PBMC; [13]): 24 SFC over BG/10^6; IFNγ ELISpot SFC over background (PBMC; [14]): 19 SFC over BG/10^6; IFNγ ELISpot SFC over background (PBMC; Subject D1100H (T1D) PBMC, Tregitope + (5 μg/mL each human Tregitopes 167 and 289)): −44 * SFC over BG/10^6; IFNγ ELISpot SFC over background (PBMC; Subject D1100H (T1D) PBMC, Tregitope −): 186 SFC over BG/10^6; IFNγ ELISpot SFC over background (PBMC; [15]): 32 SFC over BG/10^6; IFNγ ELISpot SFC over background (PBMC; [16]): 36 SFC over BG/10^6; IFNγ ELISpot SFC over background (PBMC; [17]): 26 SFC over BG/10^6; IFNγ ELISpot SFC over background (PBMC; [18]): 6 SFC over BG/10^6; IFNγ ELISpot SFC over background (PBMC; Subject D1105H (T1D) PBMC, Tregitope + (5 μg/mL each human Tregitopes 167 and 289)): −4 SFC over BG/10^6; IFNγ ELISpot SFC over background (PBMC; Subject D1105H (T1D) PBMC, Tregitope −): 2 SFC over BG/10^6; IFNγ ELISpot SFC over background (PBMC; [19]): 23 SFC over BG/10^6; IFNγ ELISpot SFC over background (PBMC; [20]): 54 SFC over BG/10^6; IFNγ ELISpot SFC over background (PBMC; Subject D1107H (T1D) PBMC, Tregitope + (5 μg/mL each human Tregitopes 167 and 289)): −13 SFC over BG/10^6; IFNγ ELISpot SFC over background (PBMC; Subject D1107H (T1D) PBMC, Tregitope −): 18 SFC over BG/10^6; IC50 (DRB1*1501): > 50 µM

Q: Which IC50 (DRB1*0401 [4]) does the source give for CC[C@H](C)[C@H](NC(=O)[C@H](Cc1ccc(O)cc1)NC(=O)[C@H](Cc1c[nH]c2ccccc12)NC(=O)[C@H](Cc1ccccc1)NC(=O)[C@H](CS)NC(=O)[C@@H](N)C(C)C)C(=O)N1CCC[C@H]1C(=O)N1CCC[C@H]1C(=O)N[C@@H](CO)C(=O)N[C@@H](CC(C)C)C(=O)N[C@@H](CCCNC(=N)N)C(=O)N[C@H](C(=O)N[C@@H](CC(C)C)C(=O)N[C@@H](CCC(=O)O)C(=O)N[C@@H](CC(=O)O)C(=O)O)[C@@H](C)O [GAD65_504–518] here?
A: > 50 µM

Q: What about the IC50 (DRB1*0701 [3]) of the same molecule?
A: 25.2 µM

Q: What about the IC50 (DRB1*1501) of the same molecule?
A: 10.3 µM

Q: What about the IC50 (DRB1*0101) of the same molecule?
A: 95.8 µM

Q: What does the source list for CC(C)C[C@H](NC(=O)[C@H](Cc1ccccc1)NC(=O)[C@H](C)NC(=O)[C@H](Cc1ccc(O)cc1)NC(=O)[C@H](CC(N)=O)NC(=O)[C@@H](NC(=O)[C@@H](N)CC(=O)O)C(C)C)C(=O)N[C@@H](Cc1c[nH]cn1)C(=O)N[C@@H](C)C(=O)N[C@H](C(=O)N[C@@H](CC(=O)O)C(=O)N[C@@H](CC(C)C)C(=O)N[C@@H](CC(C)C)C(=O)N1CCC[C@H]1C(=O)N[C@@H](C)C(=O)N[C@@H](CS)C(=O)N[C@@H](CC(=O)O)C(=O)NCC(=O)O)[C@@H](C)O [GAD65_086–103]?
A: IC50 (DRB1*0401 [1]): 7.5 µM; IC50 (DRB1*0701 [3]): < 5 µM; IC50 (DRB1*1501): > 50 µM; IC50 (DRB1*0101): < 5 µM
